# Results reported in patent publication US6586946B2, “System and method for detecting and identifying molecular events in a test sample using a resonant test structure” (Signature BioScience, Inc., priority 2000, dated 2003).
# Experiment: Resonant frequency shift of coaxial resonator coupled to protein solution versus PBS buffer (S11 return loss)
# Format: physicochemical
# Conditions: protein solution in PTFE tube; reference PBS pH 7.4; input test signal approximately 1 GHz, 100 KHz band
# Description: Using the systems and methods of the present invention, several experiments were performed to detect and identify molecular events in a solution. […] The vector network analyzer used was model number HP 8714 manufactured by Agilent Technologies, Inc. (Palo Alto, Calif.) The computer is an HP Vectra computer (Hewlett Packard Company, Palo Alto, Calif.) executing a graphically user interface (LabView® platform) to control the operation of the network analyzer and to display the resulting data. The coaxial resonator 122 illustrated in FIG. 3A was used in the experiments to illuminate the reference and test samples. […]
# In the reference measurement, PBS buffer was introduced into the tube and transported to the detection region, and a S11 (return loss) measurement of the resonator was taken. […] From the measured S11 response, the resonant frequency fres and Q-factor of the resonator were computed and stored, as described above.
# Next, each of the aforementioned protein solutions were introduced into the tube and transported to the detection region. The resonator's S11 response was measured (over the same frequency range as above) and the corresponding resonant frequency fres and Q-factor parameters derived therefrom. […] This quantity was subsequently plotted versus the resonator's measured Q-factor when electromagnetically coupled to the test sample. […]
substance,measurement,value
bovine serum albumin [BSA],change in resonant frequency of the resonator (relative to the PBS buffer),~7.5 KHz
